## Binding of CDR-mutated scFvs to a peptide of the spike HR2 region

Values reported by Li et al. 2023, doi:10.1038/s41467-023-39022-2 (FLAb copy).

Antigen: PDVDLGDISGINAS, a 14-residue peptide of the SARS-CoV-2 spike HR2 region.

Parent scFv Ab-14: VH joined to VL by a (GGGGS)3 linker. Changes lie in the heavy chain CDRs alone.
VH: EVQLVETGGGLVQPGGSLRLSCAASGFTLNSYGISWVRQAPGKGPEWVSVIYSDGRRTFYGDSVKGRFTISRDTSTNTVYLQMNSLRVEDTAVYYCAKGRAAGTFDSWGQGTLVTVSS
VL: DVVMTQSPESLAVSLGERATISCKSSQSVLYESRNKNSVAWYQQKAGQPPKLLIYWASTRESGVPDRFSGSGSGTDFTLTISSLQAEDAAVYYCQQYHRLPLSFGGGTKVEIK

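The parent was found by panning a naive human phage display library on the peptide. Designed CDR sequences, proposed from the first random library and measured here. Several design methods are mixed in this list. In AlphaSeq, yeast of one mating type display the scFv and yeast of the other type display the target. The frequency of each diploid, read from paired DNA barcodes, reflects how well the two displayed proteins bind. A regression on co-assayed BCL2-family reference pairs converts the normalised counts of each replicate to an apparent Kd. Each pool was mated in six replicate cultures.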

Changes read parent residue, position, new residue, counted from the first residue of the VH shown. This list holds designs with at most six substitutions. The Kd shown is the geometric mean over detected replicates; a lower Kd is a better binder. "nd" marks a missing value. The strain was present, yet no cells mated with the target were sequenced in any replicate, which points to weak or no binding. The range of this assay differs from that of the first round, and the authors advise against merging the two.

| changes | Kd | detected | empty controls |
|---|---|---|---|
| T28D+F59E+K65R | 3.3 nM | 2/6 | 0/18 |
| T28E+S31E+S63M+A101T | 1.5 nM | 6/6 | 0/18 |
| S31D+A101E | 1.7 nM | 8/12 | 1/36 |
| G26S+G61D+R100Q+A101L | nd | 0/6 | 0/18 |
| T28D+A101I+T104W+D106N | nd | 0/6 | 0/18 |
| G61A+S63D+A101T | 1.3 nM | 6/6 | 0/18 |
| T28V+S31D+F59A+G61I | 3.1 nM | 6/6 | 1/18 |
| T28H+N30E+G61L+K65R+R100H | nd | 0/6 | 0/18 |
| A101Q+F105Y | nd | 0/6 | 0/18 |
| T28N+S31E+S53A+G61A+R100E+S107Q | 570 pM | 6/6 | 0/18 |
| T28K+S35H+S53A+R56Q+A101V+S107T | 1.0 nM | 6/6 | 0/18 |
| T28W+S31E+G61H+S107F | 2.3 µM | 2/6 | 0/18 |
| G61Q+R100H | nd | 0/6 | 0/18 |
| G61D+R100K+A101E | 1.7 nM | 6/6 | 1/18 |
| T28S+A101T+S107Y | 17 nM | 6/6 | 0/18 |
| T28D+R56F+G61S+G99H+R100Q+F105N | nd | 0/6 | 0/18 |
| T28E+R56Q+S63N+A101T | 5.4 nM | 6/6 | 0/18 |
| G61S+R100S+A101T+S107V | 200 pM | 6/6 | 0/18 |
| F27E+S31D+G61I | 25 nM | 4/6 | 0/18 |
| T28D+S31E+G61A+A101T | 240 pM | 6/6 | 0/18 |
| T28N+T58E+G61S+A102T+T104H | nd | 0/6 | 0/18 |
| N30G+A102T+F105S | 19 nM | 2/6 | 0/18 |
| T28S+S31Q | 2.1 nM | 2/6 | 1/18 |
| S31E+A101Q+S107E | 3.5 nM | 6/6 | 0/18 |
| R100Q+G103C | nd | 0/6 | 0/18 |
| G61L+K65D+A101F | nd | 0/6 | 0/18 |
| T28S+S31E+R100W+S107N | 14 nM | 6/6 | 0/18 |
| T28S+S31E+G61H+A101Y | 4.4 nM | 6/6 | 0/18 |
| R100A+A101L | 17 nM | 6/6 | 1/18 |
| N30D+G61S | 3.6 nM | 6/6 | 0/18 |
| T28D+G61F+T104V | nd | 0/6 | 0/18 |
| S31E+G61Q+A101F+S107N | 80 nM | 4/6 | 0/18 |
| T28S+R100T+A101W+T104K | 1.5 nM | 6/6 | 0/18 |
| T28S+S31D+A101T+S107M | 690 pM | 6/6 | 0/18 |
| T28D+R56K+S63K+A101Q | 5.0 nM | 6/6 | 0/18 |
| N30D+Y32N+S63C+A102R+F105A+D106L | nd | 0/6 | 1/18 |
| S31E+G33P+I51P+G103V+S107Q | nd | 0/6 | 0/18 |
| T28D+S63D+A101T+S107D | nd | 0/6 | 0/18 |
| T28N+R56M+G61I+A101Q | 120 nM | 6/6 | 1/18 |
| T58V+S63F+A101S | nd | 0/6 | 0/18 |
| T28S+G61D+R100T | 13 nM | 6/6 | 0/18 |
| T28E+S53A+A101T+S107T | 230 pM | 6/6 | 0/18 |
| T58A+G61D+R100Q+A101L | 5.8 nM | 2/6 | 1/18 |
| T28E+G61I+S63D+A101T | 4.1 nM | 6/6 | 1/18 |
| T28S+G61D+R100W+A101L | 2.1 nM | 6/6 | 0/18 |
| T28D+S31Q+A101G+D106S | nd | 0/6 | 0/18 |
| T28D+G61C+A101T | 4.4 nM | 6/6 | 0/18 |
| T28D+S63M+R100K+A101T | 8.8 nM | 4/6 | 0/18 |
| N30E+G61A+R100K+S107K | 3.2 nM | 6/6 | 0/18 |
| T28S+G61A+T104K | nd | 0/6 | 0/18 |
| R57K+F105W | 130 nM | 1/6 | 0/18 |
| S53A+F59A+A101I | 620 pM | 6/6 | 0/18 |
| S31Q+G61S+A101Q+S107T | 1.4 nM | 6/6 | 0/18 |
| T28D+R100K+A101K | 76 nM | 4/6 | 0/18 |
| T28H+S31E+S63A+D106V | 870 pM | 5/6 | 0/18 |
| N30W+S53A | 12 nM | 5/6 | 0/18 |
| T28H+A101T | 1.8 nM | 6/6 | 0/18 |
| S63K+V64F+A102T | nd | 0/6 | 0/18 |
| G26M+G61S+R100Q+A101E | 84 nM | 2/6 | 0/18 |
| T28D+G61A+R100K+A101T+S107C | 11 nM | 1/6 | 0/18 |
| T28S+S31D+R56Q+G61S | 1.8 nM | 3/6 | 0/18 |
| N30E+R56K+D106T | nd | 0/6 | 1/18 |
| T28N+G61D+R100Q | 7.8 nM | 6/6 | 1/18 |
| N30E+A101S | 5.0 nM | 1/6 | 0/18 |
| T28S+S31E+R100K+A101T+S107T | 290 pM | 6/6 | 1/18 |
| L29F+Y32D+S53A+F105N+D106K | 270 nM | 1/6 | 0/18 |
| S31D+A101C+D106M | nd | 0/6 | 0/18 |
| S31E+G61I+A101E+S107V | 950 pM | 6/6 | 0/18 |
| S31D+F59H+G61I | 1.9 nM | 6/6 | 1/18 |
| G61Q+R100A | 17 nM | 5/6 | 0/18 |
| T28E+R100K+A101T+S107V | 1.4 nM | 6/6 | 0/18 |
| F27H+S31M+R100Y | 36 nM | 1/6 | 0/18 |
| T28E+S31E+S63R+A101Q | 3.6 nM | 6/6 | 0/18 |

For reference, 9 entries of the list once more:

| changes | Kd | detected | empty controls |
|---|---|---|---|
| S31E+G61Q+A101F+S107N | 80 nM | 4/6 | 0/18 |
| T28N+S31E+S53A+G61A+R100E+S107Q | 570 pM | 6/6 | 0/18 |
| S31E+G33P+I51P+G103V+S107Q | nd | 0/6 | 0/18 |
| T28N+T58E+G61S+A102T+T104H | nd | 0/6 | 0/18 |
| G61A+S63D+A101T | 1.3 nM | 6/6 | 0/18 |
| S53A+F59A+A101I | 620 pM | 6/6 | 0/18 |
| T28S+S31D+R56Q+G61S | 1.8 nM | 3/6 | 0/18 |
| T58V+S63F+A101S | nd | 0/6 | 0/18 |
| T28D+G61C+A101T | 4.4 nM | 6/6 | 0/18 |

The authors' rule: three or more of the six replicates give a measured affinity, fewer mean a poor binder. The parent sequence was in this pool as ten entries: three were never detected, three once, and four in most replicates, with averages from 2.2 nM to 240 nM. Three control strains display no target. For all heavy chain designs, 1% of the pairings with them gave a signal, with a median of 120 nM and one signal in twenty below 7.0 nM, so weak values seen in few replicates may be background. For each scFv, signals with the empty controls are counted beside the result. A sequence that the file lists under several names has all its replicates pooled.